Measured values as given in ChEMBL document CHEMBL3596175, “Synthesis and in vitro kinetic evaluation of N-thiazolylacetamido monoquaternary pyridinium oximes as reactivators of sarin, O-ethylsarin and VX inhibited human acetylcholinesterase (hAChE)” (2015).
pKd: −log10 of the molar value.

Columns and labels:
Acetylcholinesterase [1] = target: T1, Acetylcholinesterase (Homo sapiens, UniProt P22303); experiment: Reactivation of VX-inhibited human acetylcholinesterase assessed as dissociation constant incubated for 60 mins using ATChI substrate by DTNB dye based UV-visible spectrophotometry
Acetylcholinesterase [2] = target: T1, Acetylcholinesterase; experiment: Reactivation of sarin-inhibited human acetylcholinesterase assessed as dissociation constant incubated for 60 mins using ATChI substrate by DTNB dye based UV-visible spectrophotometry

Structure (SMILES): CCOC(=O)c1csc(NC(=O)C[n+]2cccc(/C=N/O)c2)n1
- pKd (Acetylcholinesterase [1]): 4.23
- pKd (Acetylcholinesterase [2]): 4.12
